From patent publication US10202373B2, “Heteroaryls and uses thereof” (MILLENNIUM PHARMACEUTICALS, INC., priority 2014, dated 2019) come the findings set out here.

Chains of the proteins cited; added tags and fusions are not shown.
UniProt Q8NEB9, whole entry: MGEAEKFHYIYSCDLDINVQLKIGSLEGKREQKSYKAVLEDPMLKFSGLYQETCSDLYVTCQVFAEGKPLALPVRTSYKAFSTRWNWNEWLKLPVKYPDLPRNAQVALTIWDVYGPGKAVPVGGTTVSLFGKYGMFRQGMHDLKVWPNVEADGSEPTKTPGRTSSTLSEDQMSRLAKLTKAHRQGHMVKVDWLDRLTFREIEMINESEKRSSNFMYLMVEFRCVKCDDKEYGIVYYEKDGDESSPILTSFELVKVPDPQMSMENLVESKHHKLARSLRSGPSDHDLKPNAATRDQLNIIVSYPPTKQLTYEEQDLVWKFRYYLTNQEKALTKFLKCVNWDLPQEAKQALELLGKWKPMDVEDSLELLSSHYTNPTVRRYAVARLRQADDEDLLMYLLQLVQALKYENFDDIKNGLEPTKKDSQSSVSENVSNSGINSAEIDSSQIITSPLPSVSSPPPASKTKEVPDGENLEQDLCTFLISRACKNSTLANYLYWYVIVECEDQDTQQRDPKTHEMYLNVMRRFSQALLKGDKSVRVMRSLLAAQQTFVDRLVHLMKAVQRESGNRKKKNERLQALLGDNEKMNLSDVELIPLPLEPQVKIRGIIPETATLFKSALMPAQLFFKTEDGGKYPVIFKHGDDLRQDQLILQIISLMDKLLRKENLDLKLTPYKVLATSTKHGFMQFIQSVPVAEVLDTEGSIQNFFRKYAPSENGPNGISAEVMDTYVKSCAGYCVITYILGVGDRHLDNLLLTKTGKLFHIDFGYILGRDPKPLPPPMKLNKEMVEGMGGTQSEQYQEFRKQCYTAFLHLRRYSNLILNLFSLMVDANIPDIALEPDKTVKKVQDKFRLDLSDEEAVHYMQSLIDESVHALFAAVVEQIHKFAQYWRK

The target in this assay is human VPS34 (Homo sapiens (Human), UniProt Q8NEB9). Nature of the assay: Human VPS34 enzyme assay (Adapta TR-FRET). The format is biochemical. The protocol: VPS34 (accession number GB:BC033004) was cloned into pDEST20-Thombin as N-terminal GST tagged fusion proteins using the Gateway system (Invitrogen, catalog#11804-013). The sequences were verified before recombinant protein expression using the Baculovirus Expression System with Gateway® Technology. For expression VPS34 was infected at 1 MOI in SF9 cells and harvested 72 hours post infection. For purification, VPS34 is purified by Glutathione Sepharose 4 Fast Flow (GE Healthcare #17-5132-03) followed by HiTrap Q (GE Healthcare #17-1153-01). Human VPS34 Enzyme Assay Method 100 nL compounds in DMSO are added to wells of a 384 well microtitre plate (Greiner 780076). At room temperature: 5 ul VPS34 reaction buffer (Invitrogen Assay Buffer Q (diluted 1 in 5 with nanopure water) plus 2 mM DTT and 2 mM MnCl2) containing ATP (20 uM, Promega) and 200 uM PI-PS substrate (Invitrogen PV5122) is added followed immediately by 5 ul VPS34 reaction buffer (as above) containing VPS34 (5 nM, Millennium Protein Sciences Group) and the mixture is incubated with shaking at room temperature for 1 hour. […] The plates are then incubated for 30 minutes at room temperature with shaking and then read on a BMG PheraStar Plus reader. For the assay methods described above, test compound percent inhibition, at various concentrations, is calculated relative to control (DMSO and EDTA) treated samples. […]
For orientation: In TR-FRET formats the signal depends on donor and acceptor labels being close together.

In general, IC50 refers to the concentration at which inhibition is half-maximal. Low values mean greater potency in that assay, high ones weaker potency in that assay.

The structures appear in SMILES notation. Bounds are passed on as bounds.

The compound `CC(=O)Nc1cc(-c2cnc(C)c3[nH]ccc23)ccn1` displayed an IC50 (human VPS34 enzyme assay, IC50 ranges) of 50 to 100 nM. For the setting “inhibition of VPS34 at a 1.11 μM concentration”, the “Percent Inhibition” value was above 99%.
